Only a part is listed here, and it is no random draw. Records with an inconclusive call do not appear. Active and inactive are the calls of the source. Calls follow the shape of the dose curve; as a rule, active = well fitted activation curve with a large enough effect; inconclusive = small, poorly fitted or top-dose-only effect; inactive = no such curve, though single readings can be large or run the other way.

A short description of this experiment: qHTS assay for re-activators of p53 using a Luc reporter. Also: % of control where 0% means no effect; nearly all actives have a fitted effect of over 45% in size. The following applies: H1299 p53-A138V BP100-luciferase reporter, luminescence, 24 h; at 92.2 µM (top of the series). An excerpt:
The p53 tumor suppressor plays a key role in suppression of tumorigenesis and in human carcinogenesis. It is frequently found inactivated in human cancers, mainly by point mutation. These point mutations are found in a wide variety of human cancers and a majority of them affect the DNA binding domain of the protein. The point mutations either alter native p53 conformation or abolish DNA contact. Additionally, cancer cells with p53 mutations are more resistant to chemo-radiation therapies. In order to find activators to reactivate this important protein, a cell-based screen for p53-dependent luciferase-reporter expression was developed. A p53-null H1299 lung cancer cell line was stably co-transfected with a temperature sensitive p53 mutant, p53-A138V, and a p53-responsive BP100-luciferase reporter. This cell model has previously been characterized in a gene chip profiling experiment for p53 activation. […] At assay temperate, 37 deg C, basal reporter expression is very low and after the addition of detection reagent, a luminescent read-out is carried out. […]
5ul of 1000 cells per well are dispensed in all wells except column 4, into white solid-bottom TC-treated Kalypsys plates. […] Plates are incubated for 10 min at ambient room temperature and are then read on the ViewLux (Perkin Elmer) using a clear filter for a luminescent read-out.
Consider `CCC(=O)N(c1ccccc1)C1(COC)CCN(CCc2cccs2)CC1`, for which the activity change, positive = activation was inactive: 4.04%. As for `CCC(=O)N(c1ccccc1)C1(COC)CCN(CCn2nnn(CC)c2=O)CC1`, the activity change, positive = activation was inactive: 1.24%.
